US20120190814A1, “Thiol Protecting Group” (UCL BUSINESS PLC, priority 2009, published 2012)

Protein sequences, listed by entry. Tags and fused reporters are not part of them. Lines headed by an entry give the natural chain unless they say otherwise; changes in a name come on top.
UniProt P30874: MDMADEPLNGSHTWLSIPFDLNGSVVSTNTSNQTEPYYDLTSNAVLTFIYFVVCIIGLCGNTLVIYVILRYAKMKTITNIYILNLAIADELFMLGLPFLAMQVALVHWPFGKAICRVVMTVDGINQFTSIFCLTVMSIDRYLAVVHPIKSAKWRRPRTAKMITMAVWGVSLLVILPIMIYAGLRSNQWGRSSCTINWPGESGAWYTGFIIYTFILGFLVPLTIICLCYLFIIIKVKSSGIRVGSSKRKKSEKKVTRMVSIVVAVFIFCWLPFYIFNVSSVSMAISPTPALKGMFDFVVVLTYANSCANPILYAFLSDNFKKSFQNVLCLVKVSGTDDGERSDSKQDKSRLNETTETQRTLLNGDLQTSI

Target: T1, human somatostatin receptor 2 (Homo sapiens, UniProt P30874)
T1 construct: host or cells: HEK293 cells stably expressing Kir3.1 and Kir3.2A
Assay: whole cell patch-clamp current recordings, retained biological activity of bridged somatostatins
Assay type: cell-based
Settings: HEK 293 cells expressing HKIR3.1/3.2 channel and human somatostatin receptor 2; 20 μM applied; cells clamped at −60 mV; compared with somatostatin
Experimental: HEK 293 cells expressing HKIR3.1/3.2 channel and human somatostatin receptor 2 were treated with these compounds, and whole cell patch-clamp current recordings taken.
Cell-culture methods and the generation of stable cell lines were carried out as described in J Biol Chem 275, 921-9 (2000). HEK293 cells (human embryonic kidney cell line) stably expressing Kir3.1 and Kir3.2A channels were maintained in minimum essential medium supplemented with 10% foetal calf serum and 727 μg of G418 (Invitrogen), at 37° C. in humidified atmosphere (95% O2, 5% CO2). Cells were transiently transfected with SSTR2 DNA (Missouri S&T cDNA Resource Center) along with pEGFP-N1 (Clontech) for visualization of transfected cells using epifluorescence. Transfections were performed with 5 μl of Fugene HD (Roche) and 800 ng SSTR2-DNA and 40 ng EGFP-DNA per 97 μl of cell culture medium (containing no serum or antibiotics).
Preparation of somatostatin and analogues for patch-clamp experiments Bridged somatostatins were prepared as described above. Somatostatin and its analogues were dialysed for 24 h at 4 ° C. in buffer (50 mM sodium phosphate, pH 6.2) to remove the organic solvents. After dialysis the concentration was determined and the peptides stored at 4 ° C. A final concentration of 20 μM somatostatin and analogues were used (dilution was done in the extracellular patch-clamp buffer).
Whole cell patch-clamp current recordings were performed with an Axopatch 200B amplifier (Axon Instruments) using fire-polished pipettes with a resistance of 3-4 MΩ pulled from filamented borosilicated glass capillaries (Harvard Apparatus, 1.5 mm OD×1.17 mm ID). Data was acquired and analysed via a Digidata 1322A interface (Axon Instruments) and pCLAMP software (version 8.1, Axon Instruments). A fast perfusion system was used to apply somatostatin and analogues (Rapid Solution Changer, RSC-160, Bio-Logic France). Cells were clamped at −60 mV. […] For each cell it was assessed if flow artifacts resulting from the pressure of drug application were present. […]

| Substance | activation of GIRK currents (current amplitude) |
| --- | --- |
| dibromomaleimide bridged analogue: somatostatin whose reduced disulfide cysteines are bridged by reaction with dibromomaleimide | robust activation of GIRK currents in an amplitude comparable to somatostatin iteslf |
| PEGylated-dibromomaleimide bridged analogue: somatostatin bridged with an N-PEG dibromomaleimide derivative | robust activation of GIRK currents in an amplitude comparable to somatostatin iteslf |
| fluorescein dibromomaleimide-bridged analogue: somatostatin bridged with N-fluorescein-dibromomaleimide | robust activation of GIRK currents in an amplitude comparable to somatostatin iteslf |
